Consider one compound from patent US6387905B2, “Compounds useful for inhibition of farnesyl protein transferase” (Schering Corporation, priority 1996, dated 2002).

Molecules are shown by their SMILES.

In experiment [1] the target is farnesyl protein transferase (FPT), H-ras (Homo sapiens, UniProt P49354+P49356). Description: FPT IC50 (H-ras), inhibition of farnesyl protein transferase, in vitro enzyme assay. The format is biochemical. The method, then: (§1) FPT IC50 (inhibition of farnesyl protein transferase, in vitro enzyme assay) and COS Cell IC50 (Cell-Based Assay) were determined following the assay procedures described in WO 95/10516, published Apr. 20, 1995. GGPT IC50 (inhibition of geranylgeranyl protein transferase, in vitro enzyme assay), Cell Mat Assay, and anti-tumor activity (in vivo anti-tumor studies) could be determined by the assay procedures described in WO 95/10516. The disclosure of WO 95/10516 is incorporated herein by reference thereto.

Experiment [2] has as its target farnesyl protein transferase (FPT), K-ras (Homo sapiens, UniProt P49354+P49356). The experiment in a line: FPT IC50 (K-ras), inhibition of farnesyl protein transferase, in vitro enzyme assay. The format is biochemical. The method, then:
as §1

A word on the IC50: it is the concentration that gives 50% inhibition.

Take `NCC(=O)N1CCC(CC(=O)N2CCC([C@H]3c4ncc(Br)cc4CCc4cc(Cl)cc(Br)c43)CC2)CC1` [Example 2]: the figures for the IC50 in experiment [1] and in experiment [2] were 5 nM and 20.5 nM, respectively.
